Results on 100 compounds are retold here after PubChem BioAssay AID1381 (University of Pittsburgh Molecular Library Screening Center, 2008).

Only a part is listed here, and it is no random draw. The source made the active and inactive calls.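 Rule for the calls: active = plate z-score of nuclear minus cytoplasmic receptor signal below a set negative limit, without overly bright fluorescence or cell loss (cut at about -3.5 in these data, passing the limit was not always enough); inactive = the rest, inconclusive results apart.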

The nature of the assay: inhibitors of GR-EGFP nuclear translocation, primary screen, dynein cargo transport inhibitor project, imaging, high-content, 3617.4 mouse cells (AID 1381). To be noted: stronger effect = lower value, stimulated with dexamethasone, 1 µM; at 20 µM unless noted.
Consider `CCOC(=O)c1ccc(NP(C)(=O)Oc2ccccc2)cc1` (stereo not given), for which the z-score is inactive: -0.266.

In the case of `ClCCSc1nnc(-c2cccnc2)o1`, the z-score is inactive: -0.323 [at 50 µM].

Take `COc1ccccc1OP(C)(=O)Nc1ccc(C)cc1` (stereo not given): the z-score is inactive: -0.16.

Consider `Cc1ccc(NP(C)(=O)Oc2ccccc2)c(C)c1` (stereo not given), for which the z-score is inactive: -0.615.

For the compound `CC(C)c1ccc(OP(=O)(Nc2ccccn2)Oc2ccccc2F)cc1` (stereo not given), the z-score was inactive: -0.559.

`CCN(CC)C(=S)SC(NC=O)C(Cl)(Cl)Cl` (stereo not given): the z-score was inactive: -2.19.

For `CC(C)NC(=O)NP(=O)(Oc1ccccc1)Oc1ccccc1`, the z-score was inactive: -0.423.

Regarding `COc1ccccc1OP(C)(=O)Nc1cc(Cl)ccc1C` (stereo not given), the z-score was inactive: 0.0362.

Turning to `O=[N+]([O-])c1cc([N+](=O)[O-])c(-c2ccn[nH]2)s1`, the z-score is inactive: -1.12.

Take `COc1ccc(OP(C)(=O)Nc2cccc(F)c2)cc1` (stereo not given): the z-score is inactive: -0.88.

As to `Cc1cc(C)cc(OP(C)(N)=O)c1` (stereo not given), the z-score is inactive: 1.17.

Regarding `O=[As](O)(c1ccc(O)cc1)c1ccccc1O`, the z-score is inactive: 1.17.

Take `C[As](=O)(O)c1cccc(C(=O)O)c1`: the z-score is inactive: 1.78.

Consider `CC(C)(C)c1ccc(OP(C)(=O)Nc2ccc(SC(F)(F)F)cc2)cc1` (stereo not given), for which the z-score was inactive: -1.24.

Turning to `Cc1ccc(OP(=O)(Nc2ccc([N+](=O)[O-])cn2)Oc2ccc(C)cc2)cc1`, the z-score was inactive: -0.257.

As for `Cc1cccc(C)c1OP(C)(N)=O` (stereo not given), the z-score is inactive: 1.7.

As for `Cc1ccc2nc3c(c(C)c2c1)CC(C(Cl)Cl)S3` (stereo not given), the z-score was inactive: 0.454.

For `O=[N+]([O-])c1ccc2c(c1)C=Nc1ccccc1O2`, the z-score is inactive: -0.827.

With `COc1ccc(N/C(=N/P(=O)(N2CCOCC2)N2CCOCC2)N2CCOCC2)cc1`, the z-score was inactive: 0.3.

`Cc1c2c(nc3ccccc13)SC(C(Cl)Cl)C2` (stereo not given): the z-score is inactive: -1.2.

Turning to `O=C(OC1CN2CCC1CC2)C12CC3CC(CC(C3)C1)C2` (stereo not given), the z-score was inactive: 0.228.

Consider `Cc1cc(=O)[nH]c(N[N+](=O)[O-])n1`, for which the z-score was inactive: 0.158.

On to `CCN(CC)CCCOC(=O)C(O)(c1ccccc1)c1ccccc1`, for which the z-score is inactive: -0.895.

Take `COc1ccc2nc(NP(=O)(c3ccccc3)c3ccccc3)sc2c1`: the z-score is inactive: -0.723.

Turning to `COc1cc(I)ccc1[As](=O)(O)O`, the z-score was inactive: 0.112.

In the case of `CCOP(C)(=S)SCC(=O)NC(C)C(=O)O` (stereo not given), the z-score was inactive: 0.504.

In the case of `CCOC(=O)c1ccc(NP(C)(=O)Oc2ccc(OC)cc2)cc1` (stereo not given), the z-score is inactive: -0.188.

As for `CCOC(=O)c1ccc(NC(=O)C(C)(CCl)SC)cc1` (stereo not given), the z-score was inactive: -0.476.

Regarding `CCC(C)N(CC(C)C)C(=S)SC(NC(C)=O)C(Cl)(Cl)Cl` (stereo not given), the z-score was inactive: -0.201 [at 50 µM].

With `CP(=O)(Nc1ccccn1)Oc1ccc(Cl)cc1` (stereo not given), the z-score was inactive: 0.325 [at 50 µM].

Take `CP(=O)(Nc1ccc(SC(F)(F)F)cc1)Oc1ccc(Cl)cc1` (stereo not given): the z-score was inactive: -0.192.

`Cc1cccc(C)c1OP(C)(=O)Nc1ccc(SC(F)(F)F)cc1` (stereo not given): the z-score is inactive: 1.32.

Regarding `COP1(=S)c2c(C)nn(CCC#N)c2N=C(c2ccc(F)cc2)N1C` (stereo not given), the z-score is inactive: 1.01 [at 50 µM].

`CP(=O)(Oc1ccccc1)OC(c1ccccc1)C(F)(F)F` (stereo not given): the z-score is inactive: 0.887.

With `CCc1ccc(OP(C)(=O)N2CCN(c3ccc([N+](=O)[O-])cc3)CC2)cc1` (stereo not given), the z-score is inactive: -1.16.

`CP(=O)(NC(=O)Nc1ccccc1)Oc1ccccc1` (stereo not given): the z-score was inactive: -1.27.

With `O=C(COc1ccccc1)OC1CN2CCC1CC2` (stereo not given), the z-score is inactive: -0.682.

Consider `Cc1cc(C)cc(OP(C)(=O)Nc2ccc(SC(F)(F)F)cc2)c1` (stereo not given), for which the z-score was inactive: 1.91.

Consider `CP(=S)(Nn1cnnc1)Oc1ccccc1` (stereo not given), for which the z-score is inactive: -0.281 [at 50 µM].

Take `CCOC(=O)Nc1cccc([As](=O)(O)O)c1`: the z-score was inactive: 0.723.

Regarding `Cc1cc(SC(NC=O)C(Cl)(Cl)Cl)ncn1` (stereo not given), the z-score was inactive: -0.0407.

`O=P(Nc1ccccn1)(c1cccc2ccccc12)c1cccc2ccccc12`: the z-score was inactive: 2.

For `COc1ccccc1OP(C)(=O)Nc1ccccc1` (stereo not given), the z-score was inactive: 0.173.

`CP(=O)(Nc1ccccc1Br)Oc1ccccc1` (stereo not given): the z-score is inactive: 0.433.

In the case of `O=[N+]([O-])c1ccc(Nc2ccc(Oc3ccc([N+](=O)[O-])cc3[N+](=O)[O-])cc2)c([N+](=O)[O-])c1`, the z-score was inactive: -2.15.

For the compound `CCOC(=O)Nc1ccc([As](=O)(O)O)c(O)c1`, the z-score is inactive: 0.0429.

As for `Cc1cc(SC(NC(=O)c2ccccc2)C(Cl)(Cl)Cl)nc(C(C)C)n1` (stereo not given), the z-score is inactive: -0.864.

As for `O=[N+]([O-])c1ncn(CCn2ncnc2[N+](=O)[O-])n1`, the z-score is inactive: 0.0493.

In the case of `CC(C)(C)C(=O)NC(Sc1ccncn1)C(Cl)(Cl)Cl` (stereo not given), the z-score is inactive: -1.25.

For the compound `O=C(O)CNc1ccc([As](=O)(O)O)cc1`, the z-score was inactive: -0.618.

For `O=[N+]([O-])c1cccc(NC2=NCC(CBr)S2)c1` (stereo not given), the z-score is inactive: 0.546.

`CP(=O)(OC12CC3CC(CC(C3)C1)C2)OC12CC3CC(CC(C3)C1)C2`: the z-score is inactive: -0.0317.

On to `CCOC(=O)c1ccc(NP(C)(=O)Oc2ccc(Cl)cc2)cc1` (stereo not given), for which the z-score is inactive: -0.596.

Turning to `O=C(Nc1cc([As](=O)(O)O)ccc1O)c1ccccc1`, the z-score was inactive: -0.952.

For `CCN(/C(=N/P(=O)(N1CCOCC1)N1CCOCC1)N1CCOCC1)c1ccc(OC)cc1`, the z-score is inactive: 2.13.

Consider `CP(=O)(Nc1ccc(Cl)cc1)Oc1ccc(F)cc1` (stereo not given), for which the z-score is inactive: -1.08 [at 50 µM].

Regarding `Nc1ccc([As](=O)(O)c2ccc(N)cc2)cc1`, the z-score is inactive: 1.04.

In the case of `CC(C)(C)c1ccc(OP(C)(=O)O)cc1`, the z-score was inactive: 0.0111 [at 50 µM].

Consider `COc1ccccc1OP(C)(=O)Nc1ccccc1Br` (stereo not given), for which the z-score is inactive: 0.134.

With `C[N+]1=C2C=CC=CC=C2SC12C([N+](=O)[O-])=CC([N+](=O)[O-])=C[C-]2[N+](=O)[O-]` (stereo not given), the z-score was inactive: -2.04.

As for `CC1CCN(C(=O)Oc2c(Cl)cc(Cl)c3cccnc23)CC1`, the z-score was inactive: -0.318 [at 50 µM].

On to `CC(C)=N/N=C(\N)N[N+](=O)[O-]`, for which the z-score is inactive: 0.512.

On to `CN(C)C(=O)c1c([N+](=O)[O-])cc([N+](=O)[O-])cc1[N+](=O)[O-]`, for which the z-score was inactive: -1.56.

`CN(C)C(=O)OCCc1n(C)cc[n+]1C`: the z-score is inactive: -0.34.

Regarding `CCN(CC)CC(O)COC(=O)C(O)(c1ccccc1)C1CCCCC1` (stereo not given), the z-score was inactive: -0.429.

In the case of `COc1ccc(C2=NCC(CBr)S2)cc1` (stereo not given), the z-score was inactive: 0.877.

`COc1ccc(OP(C)(=O)Nc2ccc(Br)cc2)cc1` (stereo not given): the z-score was inactive: 1.81.

For the compound `Cc1ccc(NP(=O)(Oc2ccccc2)Oc2ccccc2)nc1`, the z-score is inactive: -1.41.

As to `CP(=O)(Oc1ccccc1)N1CCOC1=O` (stereo not given), the z-score is inactive: -0.933.

`O=[N+]([O-])c1cc([N+](=O)[O-])c(CCNc2ccccc2)c([N+](=O)[O-])c1`: the z-score was inactive: 0.0369.

For the compound `CCc1nc2c(n1)c1c(non1O)c1c2no[n+]1[O-]`, the z-score is inactive: -3.23.

In the case of `CCc1ccc(OP(C)(=O)Nc2cccnc2)cc1` (stereo not given), the z-score is inactive: -0.111.

With `COc1ccccc1OP(C)(=O)Nc1c(C)n(C)n(-c2ccccc2)c1=O` (stereo not given), the z-score was inactive: -0.758.

On to `CC(=O)N1C2C3N(C(C)=O)C1C1N(C(C)=O)C(C(N1C(C)=O)N3C(C)=O)N2C(C)=O`, for which the z-score was inactive: 0.488.

Turning to `O=[N+]([O-])c1cccc2n[nH]nc12`, the z-score was inactive: 0.684 [at 50 µM].

Consider `O=C(OCCCN1CCCC1)C(O)(c1ccccc1)C1CCCCC1` (stereo not given), for which the z-score is inactive: -0.575.

Consider `Oc1ccccc1CNc1ccccn1`, for which the z-score was inactive: -0.212.

Regarding `O=C(NC(Sc1ccncn1)C(Cl)(Cl)Cl)c1ccccc1` (stereo not given), the z-score is inactive: 0.168.

With `O=[N+]([O-])c1cc([N+](=O)[O-])c(Nc2ccccn2)c([N+](=O)[O-])c1`, the z-score is inactive: -1.01.

Consider `CC(C)CC(=O)NC(Sc1ccc(Cl)cc1)C(Cl)(Cl)Cl` (stereo not given), for which the z-score was inactive: -0.324.

As to `Nc1cc(N)c2nonc2c1[N+](=O)[O-]`, the z-score is inactive: 0.257.

Turning to `Cc1c(NP(C)(=O)Oc2ccc(C(C)C)cc2)c(=O)n(-c2ccccc2)n1C` (stereo not given), the z-score was inactive: 1.16 [at 50 µM].

Turning to `CCc1ccc(OP(C)(=O)O)cc1`, the z-score is inactive: -0.0781 [at 50 µM].

On to `CP(=O)(Nc1ccccn1)Oc1ccccc1` (stereo not given), for which the z-score is inactive: 0.153 [at 50 µM].

With `COc1ccccc1OP(C)(=O)Nc1ccc(C)cc1C` (stereo not given), the z-score is inactive: 0.61.

In the case of `COc1ccccc1OP(C)(=O)Nc1ccc(Br)cc1` (stereo not given), the z-score is inactive: -0.697.

As for `Cc1ccc(N/C(=N/P(=O)(N2CCOCC2)N2CCOCC2)N2CCOCC2)cc1`, the z-score is inactive: 0.755.

With `NC(=O)c1cc([N+](=O)[O-])cc([N+](=O)[O-])c1N`, the z-score was inactive: -0.418.

In the case of `CN(C)CCOC(=O)C(O)(c1ccccc1)C1CCCC1` (stereo not given), the z-score is inactive: 0.181 [at 50 µM].

As for `Clc1ccc(Cl)c(NC2=NCC(CBr)S2)c1` (stereo not given), the z-score is inactive: 0.0844.

As for `CN1CCCC(OC(=O)C(c2ccccc2)c2ccccc2)C1` (stereo not given), the z-score is inactive: -0.0656 [at 50 µM].

Turning to `COc1ccc(OP(C)(=O)Nc2ccccn2)cc1` (stereo not given), the z-score is inactive: 0.405.

For `COc1ccccc1OP(=O)(Nc1ccc(C)cn1)Oc1ccccc1OC`, the z-score is inactive: 2.28.

Take `Cc1ccc(OP(=O)(Nc2nccs2)Oc2ccc(C)cc2)cc1`: the z-score was inactive: -0.354.

For `Cc1nc2ccc3ccccc3c2o1.O=[N+]([O-])c1cc([N+](=O)[O-])c(O)c([N+](=O)[O-])c1`, the z-score was inactive: -0.325.

For the compound `Nc1cccc2ccc([As](=O)(O)O)cc12`, the z-score was inactive: 0.41.

On to `CP(=O)(OCCOc1ccccc1)OCCOc1ccccc1`, for which the z-score is inactive: 0.104.

Turning to `CP(=O)(Nc1ccc(Cl)cc1Cl)Oc1ccccc1` (stereo not given), the z-score is inactive: -0.516.

Consider `CCN(N=Nc1nonc1N)c1nonc1N`, for which the z-score is inactive: -0.01.

As to `Cc1cc(C)cc(OP(C)(=O)Nc2cccc(C(F)(F)F)c2)c1` (stereo not given), the z-score was inactive: -0.251.
